From ChEMBL document CHEMBL1240345, “Zebrafish chemical screening reveals an inhibitor of Dusp6 that expands cardiac cell lineages” (Nat Chem Biol, 2009)
The source made the active and inactive calls. No cut-off for these calls is given here.

Sequences of proteins named here, by UniProt entry; tags and fusion partners are left off. A change or cut given only in a name is not applied to a line headed by its entry.
UniProt P51452: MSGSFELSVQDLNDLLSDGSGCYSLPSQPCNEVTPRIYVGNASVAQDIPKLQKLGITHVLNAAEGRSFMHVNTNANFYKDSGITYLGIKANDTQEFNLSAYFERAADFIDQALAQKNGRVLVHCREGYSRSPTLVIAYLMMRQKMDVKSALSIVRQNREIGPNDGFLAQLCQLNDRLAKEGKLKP

Tests used:
Details in all cases: 100 uM
[1] = molecular target: T1, Tyrosine-protein phosphatase non-receptor type 1 (Homo sapiens) (UniProt P18031)
T1 sequence (whole entry): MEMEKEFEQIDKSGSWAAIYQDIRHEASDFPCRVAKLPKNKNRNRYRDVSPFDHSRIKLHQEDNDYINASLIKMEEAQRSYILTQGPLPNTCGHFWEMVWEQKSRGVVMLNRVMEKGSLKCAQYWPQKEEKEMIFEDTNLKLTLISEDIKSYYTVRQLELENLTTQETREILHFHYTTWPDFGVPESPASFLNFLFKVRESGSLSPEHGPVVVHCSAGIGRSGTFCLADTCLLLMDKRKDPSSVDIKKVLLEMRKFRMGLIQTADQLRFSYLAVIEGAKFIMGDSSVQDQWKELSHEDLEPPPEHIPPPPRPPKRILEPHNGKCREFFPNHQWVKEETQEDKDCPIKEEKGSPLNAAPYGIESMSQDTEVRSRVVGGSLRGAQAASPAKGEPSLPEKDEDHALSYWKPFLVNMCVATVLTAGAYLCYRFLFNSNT

[2] = molecular target: T2, M-phase inducer phosphatase 2 (Homo sapiens) (UniProt P30305)
T2 sequence (whole entry): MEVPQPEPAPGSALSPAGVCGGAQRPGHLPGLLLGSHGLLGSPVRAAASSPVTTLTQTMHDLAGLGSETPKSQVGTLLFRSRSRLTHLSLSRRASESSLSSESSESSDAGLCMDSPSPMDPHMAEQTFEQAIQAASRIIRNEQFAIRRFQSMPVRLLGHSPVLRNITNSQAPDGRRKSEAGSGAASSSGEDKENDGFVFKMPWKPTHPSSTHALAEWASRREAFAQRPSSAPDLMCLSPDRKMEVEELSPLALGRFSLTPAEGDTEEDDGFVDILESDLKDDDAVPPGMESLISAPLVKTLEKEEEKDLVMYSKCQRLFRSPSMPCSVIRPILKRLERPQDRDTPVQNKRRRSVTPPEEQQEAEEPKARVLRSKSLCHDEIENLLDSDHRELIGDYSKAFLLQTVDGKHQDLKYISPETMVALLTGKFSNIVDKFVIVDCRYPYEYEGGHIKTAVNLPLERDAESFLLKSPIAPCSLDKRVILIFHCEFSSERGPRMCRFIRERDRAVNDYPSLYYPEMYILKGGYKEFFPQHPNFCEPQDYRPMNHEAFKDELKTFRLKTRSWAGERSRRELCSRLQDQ

[3] = molecular target: Dual specificity protein phosphatase 3 (Homo sapiens, UniProt P51452)

inhibition [1]: inactive | inhibition [2]: inactive | inhibition [3]: inactive
Structure (SMILES): O=C1/C(=C/c2ccccc2)C(NC2CCCCC2)c2ccccc21 (stereo not drawn)
